Experimental data taken from patent publication US20260176270A1 (Exelixis, Inc., priority 2022, published 2026).

By UniProt entry, the sequences of proteins in these tests, tags left out.
UniProt Q99640, whole entry: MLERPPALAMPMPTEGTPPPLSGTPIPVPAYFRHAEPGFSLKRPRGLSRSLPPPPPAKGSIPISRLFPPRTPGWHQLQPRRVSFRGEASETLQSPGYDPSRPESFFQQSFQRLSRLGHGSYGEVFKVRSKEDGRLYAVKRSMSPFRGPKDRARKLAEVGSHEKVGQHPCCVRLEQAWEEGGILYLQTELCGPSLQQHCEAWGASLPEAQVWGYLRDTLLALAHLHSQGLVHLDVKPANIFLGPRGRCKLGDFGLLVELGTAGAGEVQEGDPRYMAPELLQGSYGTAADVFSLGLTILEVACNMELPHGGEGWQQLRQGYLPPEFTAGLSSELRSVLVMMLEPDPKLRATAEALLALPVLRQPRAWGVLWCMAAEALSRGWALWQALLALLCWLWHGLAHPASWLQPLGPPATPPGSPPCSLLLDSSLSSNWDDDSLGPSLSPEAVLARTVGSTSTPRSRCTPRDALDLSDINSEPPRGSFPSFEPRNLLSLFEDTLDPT

Columns and labels:
PKMYT1 = PKMYT1 (Homo sapiens, UniProt Q99640); experiment: ADP-Glo PKMYT1 ATP-depletion assay; settings: read-out: Biochemical IC50, 50 nM PKMYT1, 13.3 nM CDK1
Experimental: (§1) Biochemical IC50 values were determined via ADP-Glo™ assay. Cellular IC50 values were determined via AlphaLISA assay.
ADP-Glo™ PKMYT1 ATP-depletion assay. The activity of PKMYT1 is measured using a luciferase-luciferin based ATP detection reaction to quantify ATP depletion resulting from kinase-catalyzed phosphoryl transfer to CDK1 or autophosphorylation of PKMYT1. The ADP generated as a byproduct of the reaction is converted to ATP and used to drive a luciferase reaction. Test compounds were dissolved in DMSO and dispensed into Corning 3824 384-well plates prior to the experiment such that the final DMSO concentration was <1%. To the compounds was added 3 μL of PKMYT1 (93 kD, full length, N-terminal GST tag from Signal Chem). The reaction was started by the addition of 2 μL of CDK1 (58 kDa, full length, N-terminal GST tag from Signal Chem) and ATP in assay buffer (50 mM Hepes, 40 mM NaCl, 10 mM MgCl2, 1 mM DTT, 0.1 mg/mL BSA, 2.5 mM MnCl2). Final assay concentrations were 50 nM PKMYT1, 13.3 nM CDK1, and 88 µM ATP. Plates were centrifuged for 1 minute at 1000 RPM and incubated at RT for 120 minutes. […] 30 minutes after the addition, plates were placed on a PHERAstar® plate reader and read using the Luminescence Protocol, integration time at 0.5 seconds.

[1] = tested on: phosphorylation of CDK1 at Thr14 in HCC1806 cells; experiment: Cell lysate AlphaLISA assay measuring inhibition of phosphorylation of CDK1 Thr14; settings: read-out: Cellular IC50, 4 hours
Experimental: as §1
Cell lysate AlphaLISA® assay measuring inhibition of phosphorylation of CDK1 Thr14. Inhibition of phosphorylation of CDK1 at Thr14 was determined using AlphaLISA® SureFire® Ultra™ Kit from Perkin Elmer (ALSU-PCDK1-A10K). HCC1806 cells were seeded at 2K cells per well (50 μl/well) in 384-well plates (Corning 3570) and stored overnight at 37° C. and 5% CO2. The following day, the compounds dissolved in DMSO were introduced to the cells and incubated for 4 hours at 37° C. and 5% CO2. The cells were then washed with PBS using Blue®Washer and 10 μl of lysis buffer containing protease inhibitor was added. The plate was placed on an orbital shaker (at 4° C.) for 30 minutes and stored overnight at −80° C. for complete lysing. The next day, the plates were thawed at room temperature for at least 30 min. Reagents were prepared in a dimmed light setting (<100 lumens). […] The donor mix (dilution buffer: donor beads 47:3) was then added at 5 μl per well, placed on the shaker for 2 minutes and incubated at RT for 60 minutes before reading the plates on a PHERAstar® plate reader. […]

Structure (SMILES): COc1nc2cc(C#N)c(N)c(-c3cccc(O)c3C)c2nc1OC
- IC50 (PKMYT1): 50 to 500 nM
- IC50 [1]: 1000 to 5000 nM
